{
  "source": "ChEMBL document CHEMBL2176900",
  "about": "“Design and synthesis of a novel series of bicyclic heterocycles as potent γ-secretase modulators” (J Med Chem, 2012)",
  "experiment": "Binding affinity to P-glycoprotein assessed as efflux ratio",
  "data": [
    {"smiles": "COc1nc(Nc2cccc3c2nc(-c2ccc(F)cc2)n3C)ccc1-n1cnc(C)c1", "values": [
      {"measurement": "Ratio", "value": 0.5}
    ]}
  ]
}
